From US12234202B2, “Covalent inhibitors of coronavirus papain-like protease” (UT-Battelle, LLC, priority 2021, dated 2025) come the findings set out here.

The target of test [1] is full-length SARS-CoV-2 HA-Nsp3 (Severe acute respiratory syndrome coronavirus 2 (2019-nCoV) (SARS-CoV-2), UniProt P0DTD1). Kind of test: biochemical.
The target in the next test is SARS-CoV-2 PLpro (Severe acute respiratory syndrome coronavirus 2, UniProt P0DTD1). Kind of test: biochemical.

Structures are written as SMILES.

Broadly, the IC50 is the point on the concentration scale where inhibition reaches its midpoint. Low values mean greater potency in that assay, high ones weaker potency in that assay. For `COC(=O)/C=C/C(=O)NNC(=O)CCc1ccccc1C(=O)N[C@H](C)c1cccc2ccccc12` [Compound 7, methyl(R,E)-4-(2-(3-(2-((1-(naphthalen-1 yl)ethyl)carbamoyl)-phenyl)propanoyl)hydrazineyl)-4-oxobut-2-enoate], the IC50 in test [1] came to 38 nM; against SARS-CoV-2 PLpro it was 39 nM.
